We go through 1 compound from ChEMBL document CHEMBL6071206, “Development of BODIPY FL SNS 032 as a Versatile Probe for Constitutive Androstane Receptor and Multiple Kinases” (ACS Med Chem Lett, 2024).

Sequences of proteins named here, by UniProt entry; tags and fusion partners are left off. A change or cut given only in a name is not applied to a line headed by its entry.
UniProt P49840: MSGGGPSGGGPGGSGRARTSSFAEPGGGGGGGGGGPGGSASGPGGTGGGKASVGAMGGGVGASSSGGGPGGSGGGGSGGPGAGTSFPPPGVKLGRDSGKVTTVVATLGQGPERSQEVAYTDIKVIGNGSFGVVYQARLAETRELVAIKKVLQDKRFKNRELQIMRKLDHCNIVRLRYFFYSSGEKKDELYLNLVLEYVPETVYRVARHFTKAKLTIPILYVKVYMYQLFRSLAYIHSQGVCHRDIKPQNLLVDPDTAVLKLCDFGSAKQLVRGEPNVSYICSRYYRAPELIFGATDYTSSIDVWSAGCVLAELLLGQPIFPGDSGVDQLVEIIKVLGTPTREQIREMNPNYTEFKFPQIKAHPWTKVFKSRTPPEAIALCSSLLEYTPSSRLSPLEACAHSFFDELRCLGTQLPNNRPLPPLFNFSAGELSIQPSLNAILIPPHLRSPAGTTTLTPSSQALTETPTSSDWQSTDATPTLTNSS

This experiment has as its target Glycogen synthase kinase-3 alpha (Homo sapiens, UniProt P49840). Nature of the experiment: Inhibition of GST-tagged human GSK3A incubated for 90 mins by TR-FRET assay. For orientation: TR-FRET usually uses a lanthanide donor and a delayed reading to cut background.

The term IC50 denotes the concentration needed to halve the response being measured. A higher IC50 goes with a need for much substance. As a reminder, the Ki is a dissociation constant, usually derived from enzyme kinetics or from competition with a known ligand.

Compound `CN1CC[C@H](c2c(O)cc(O)c3c(=O)cc(-c4ccccc4Cl)oc23)[C@H](O)C1` [ALVOCIDIB] returned an IC50 of 164 nM and a Ki of 81.9 nM.
